Values quoted from earlier work, collected in publication PMC4961704, “Synthesis and Biological Evaluation of Thiophene-Based Cannabinoid Receptor Type 2 Radiotracers for PET Imaging” (Frontiers in Neuroscience, 2016).

Amino acid sequences for entries named in this document (tags omitted).
UniProt P34972, whole entry: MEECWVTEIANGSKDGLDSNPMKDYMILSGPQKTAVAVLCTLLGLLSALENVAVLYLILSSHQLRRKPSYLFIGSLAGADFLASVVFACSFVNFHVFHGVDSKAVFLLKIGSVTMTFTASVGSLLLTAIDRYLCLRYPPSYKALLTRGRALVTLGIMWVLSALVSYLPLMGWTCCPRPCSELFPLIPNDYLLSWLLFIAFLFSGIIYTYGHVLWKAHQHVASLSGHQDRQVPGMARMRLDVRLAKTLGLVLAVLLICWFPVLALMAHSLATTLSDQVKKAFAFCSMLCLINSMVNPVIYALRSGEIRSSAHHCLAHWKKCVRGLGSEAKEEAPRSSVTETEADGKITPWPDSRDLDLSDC

Target: T1, hCB2 (Homo sapiens, UniProt P34972)
T1 construct: purchased PerkinElmer; host or cells: CHO-K1 cells stably transfected
Design: method as in earlier work
Details: known ligands, entry 1–3; ref Showalter et al., 1996; Lan et al., 1999; Valenzano et al., 2005; cited from earlier work

Question: Which Ki does the source give for Cc1c(C(=O)NN2CCCCC2)nn(-c2ccc(Cl)cc2Cl)c1-c1ccc(I)cc1 [AM251] here?
Answer: The Ki was 2.29 ± 0.9 µM.
